# Test results published in patent US6433014B1, “Compounds consisting in particular of effectors of the central nervous system receptors sensitive excitatory amino acids, preparation and biological applications” (Centre National de la Recherche Scientifique (C.N.R.S.), priority 1997, dated 2002).
# The chains behind the UniProt entries cited, without tags or fusion partners. Residues count along the entry.
# UniProt P23385, 19-1199 limits assumed: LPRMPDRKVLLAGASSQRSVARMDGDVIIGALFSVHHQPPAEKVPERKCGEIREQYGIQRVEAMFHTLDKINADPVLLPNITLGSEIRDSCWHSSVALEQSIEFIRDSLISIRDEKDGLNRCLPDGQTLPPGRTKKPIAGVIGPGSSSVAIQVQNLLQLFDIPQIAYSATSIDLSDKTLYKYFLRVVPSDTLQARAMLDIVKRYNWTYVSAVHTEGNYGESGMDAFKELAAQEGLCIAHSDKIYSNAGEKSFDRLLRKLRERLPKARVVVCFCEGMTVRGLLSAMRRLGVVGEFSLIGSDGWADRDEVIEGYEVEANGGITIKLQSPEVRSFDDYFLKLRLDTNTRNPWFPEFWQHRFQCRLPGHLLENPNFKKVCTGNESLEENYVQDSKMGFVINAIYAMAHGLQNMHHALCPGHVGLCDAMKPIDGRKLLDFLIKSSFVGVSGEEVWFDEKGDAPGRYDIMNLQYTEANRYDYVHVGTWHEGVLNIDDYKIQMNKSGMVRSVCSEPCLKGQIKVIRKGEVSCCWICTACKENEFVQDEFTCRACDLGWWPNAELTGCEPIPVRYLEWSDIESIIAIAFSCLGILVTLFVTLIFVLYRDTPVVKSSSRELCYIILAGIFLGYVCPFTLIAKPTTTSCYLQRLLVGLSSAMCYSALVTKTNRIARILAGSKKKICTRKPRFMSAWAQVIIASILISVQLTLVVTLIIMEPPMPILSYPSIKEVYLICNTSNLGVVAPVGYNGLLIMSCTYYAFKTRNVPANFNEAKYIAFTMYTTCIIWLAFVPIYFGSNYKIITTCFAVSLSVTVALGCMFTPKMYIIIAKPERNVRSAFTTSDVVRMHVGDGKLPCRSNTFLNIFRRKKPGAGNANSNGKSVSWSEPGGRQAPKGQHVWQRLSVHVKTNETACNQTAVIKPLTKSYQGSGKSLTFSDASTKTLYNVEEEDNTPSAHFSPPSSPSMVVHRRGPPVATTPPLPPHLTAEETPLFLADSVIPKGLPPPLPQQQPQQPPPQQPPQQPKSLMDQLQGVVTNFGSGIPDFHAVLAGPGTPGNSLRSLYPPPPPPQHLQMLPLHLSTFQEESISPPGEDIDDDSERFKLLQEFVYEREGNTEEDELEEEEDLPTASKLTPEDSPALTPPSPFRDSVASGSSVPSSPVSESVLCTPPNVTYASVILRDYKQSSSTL
# UniProt P31421, 19-872 limits assumed: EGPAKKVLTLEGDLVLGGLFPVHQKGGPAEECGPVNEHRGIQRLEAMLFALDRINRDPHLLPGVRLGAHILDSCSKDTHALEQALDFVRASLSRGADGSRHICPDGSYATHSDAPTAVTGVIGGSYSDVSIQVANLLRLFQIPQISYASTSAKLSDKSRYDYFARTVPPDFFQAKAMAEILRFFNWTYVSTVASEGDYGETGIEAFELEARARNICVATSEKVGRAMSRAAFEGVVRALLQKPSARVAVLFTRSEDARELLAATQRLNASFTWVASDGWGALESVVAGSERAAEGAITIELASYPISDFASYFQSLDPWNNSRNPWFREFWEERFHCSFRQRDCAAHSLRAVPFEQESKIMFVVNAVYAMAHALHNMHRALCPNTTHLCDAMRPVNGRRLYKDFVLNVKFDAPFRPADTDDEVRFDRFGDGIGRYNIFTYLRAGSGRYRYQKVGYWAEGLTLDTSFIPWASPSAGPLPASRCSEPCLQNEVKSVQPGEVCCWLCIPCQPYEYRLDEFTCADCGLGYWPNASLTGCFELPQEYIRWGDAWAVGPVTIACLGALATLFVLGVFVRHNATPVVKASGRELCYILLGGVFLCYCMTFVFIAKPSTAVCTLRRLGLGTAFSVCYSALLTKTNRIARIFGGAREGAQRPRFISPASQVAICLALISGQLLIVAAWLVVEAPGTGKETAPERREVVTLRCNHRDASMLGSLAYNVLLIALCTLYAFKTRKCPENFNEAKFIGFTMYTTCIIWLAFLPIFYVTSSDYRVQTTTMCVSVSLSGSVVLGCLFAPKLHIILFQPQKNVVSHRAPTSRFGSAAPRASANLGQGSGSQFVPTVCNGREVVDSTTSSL
# UniProt P31423, 33-912 limits assumed: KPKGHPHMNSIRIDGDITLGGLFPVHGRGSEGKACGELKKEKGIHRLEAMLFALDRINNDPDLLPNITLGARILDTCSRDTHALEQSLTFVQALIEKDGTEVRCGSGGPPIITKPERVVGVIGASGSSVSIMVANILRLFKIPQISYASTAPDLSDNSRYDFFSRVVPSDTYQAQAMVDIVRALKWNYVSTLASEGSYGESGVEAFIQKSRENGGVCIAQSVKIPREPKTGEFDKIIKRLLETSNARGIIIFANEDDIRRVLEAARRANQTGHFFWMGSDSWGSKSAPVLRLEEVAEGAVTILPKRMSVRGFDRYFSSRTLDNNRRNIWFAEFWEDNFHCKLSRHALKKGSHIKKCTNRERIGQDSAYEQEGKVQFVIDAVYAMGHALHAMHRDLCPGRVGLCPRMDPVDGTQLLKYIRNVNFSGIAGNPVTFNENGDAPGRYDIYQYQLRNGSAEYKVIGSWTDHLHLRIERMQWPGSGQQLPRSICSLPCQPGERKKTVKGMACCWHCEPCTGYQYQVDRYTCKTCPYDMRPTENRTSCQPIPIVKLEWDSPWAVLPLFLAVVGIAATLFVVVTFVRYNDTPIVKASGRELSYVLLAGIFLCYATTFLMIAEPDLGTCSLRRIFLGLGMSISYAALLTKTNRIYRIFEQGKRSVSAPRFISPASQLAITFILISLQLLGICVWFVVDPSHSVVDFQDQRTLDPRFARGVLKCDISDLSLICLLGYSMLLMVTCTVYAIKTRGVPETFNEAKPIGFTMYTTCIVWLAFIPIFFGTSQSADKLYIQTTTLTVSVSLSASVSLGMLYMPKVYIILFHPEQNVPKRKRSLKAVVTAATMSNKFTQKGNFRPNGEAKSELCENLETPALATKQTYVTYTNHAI
# What was measured:
# mGluR1a = mGluR1a (Rattus norvegicus, UniProt P23385); assay: accumulation of inositol phosphates (phospholipase C activation) in transfected HEK 293 cells expressing mGluR1a; assay type: cell-based; conditions: for EC50: read-out: mGluR1a EC50 (agonist effect), IP accumulation; for IC50: read-out: mGluR1a IC50 values (printed in KB column, footnote a), Glu = 20 μM
# mGluR2 = mGluR2 (Rattus norvegicus, UniProt P31421); assay: accumulation of inositol phosphates in transfected HEK 293 cells expressing mGluR2 co-expressed with chimeric G protein; assay type: cell-based; conditions: for EC50: read-out: mGluR2 EC50 (agonist effect), IP accumulation; for IC50: read-out: mGluR2 IC50 values (printed in KB column, footnote a), Glu = 20 μM
# Method: The biological activity of ACPT-I, -II and -III was tested on transfected HEK 293 cells expressing mGluR1a, mGluR2 or mGluR4a, chosen as prototypes of the metabotropic receptors of groups I, II or III.
# For this purpose, the activation of phospholipase C was measured (accumulation of inositol phosphates).
# The HEK 293 cells are cultured in a Dulbecco's modified Eagle medium (DMEM, Gibco BRL) to which 10% of foetal calf serum has been added, and transfected by electroporation as previously described by Gomeza et al., Molecular Pharmacology, 1996, 50:923-930 (1996).
# The electroporation is carried out in a total volume of 300 μl with 10 μg of supporting DNA, plasmid DNA containing mGluR1a (0.3 μg), mGluR2 (2 μg) or mGluR4a (5 μg) and 10^7 cells.
# In order to allow activation of the phospholipase C by mGluR2 and mGluR4a, which effect is easier to measure than the inhibition of the production of cAMP, these receptors are co-expressed with chimeric G, Gqo5 and Gqi9 proteins, as described by Gomeza. The pharmacological profiles of these 2 receptors determined according to this method, have already been described as identical to those characterized by measuring the inhibition of the formation of cAMP.
# Determination of the accumulation of inositol phosphates (IP).
# The determination of the accumulation of IP in transfected cells is carried out as described by Gomeza after labelling the cells for approximately 14 hours with [^3H]-myo-inositol (23.4 Ci/mol, NEN, France).
# Stimulation is carried out for 30 minutes in a medium containing 10 mM LiCl in the presence of the drugs tested. The formation of the basic IP is determined after 30 minutes of incubation in the presence of 10 mM LiCl and pyruvate glutamate transaminase (1 U/ml) degrading the glutamate (Glu) and 2 mM of pyruvate in order to avoid the possible effects of Glu released by the cells. The results are expressed in the quantity of IP product with respect to the radioactivity present in the membranes.
# mGluR4a = mGluR4a (Rattus norvegicus, UniProt P31423); assay: accumulation of inositol phosphates in transfected HEK 293 cells expressing mGluR4a co-expressed with chimeric G protein; assay type: cell-based
# [1] = system: ionotropic receptors (NMDA, AMPA and kainate receptors); assay: patch clamp recording of granule cells of the cerebellum; assay type: cell-based, mice; conditions: ACPT 1 mM; NMDA or kainate 100 μM
# Method: Culture and recording of the granule cells of the cerebellum
# The granule cells of the cerebellum are cultured from 7 day-old baby mice as described by Van-Vliet, B. J., J. of Neurochemistry, 1989, .52, 1229-1239.
# Recording is carried out using the technique known as a “patch clamp” in the full cell configuration and the molecules are applied using a rapid application technique.
# Initially, tests were carried out in order to check whether the ACPT's were capable of activating or exercising an antagonist effect vis-à-vis the ionotropic receptors. These tests have shown that none of the ACPT enantiomers induces a current when they are placed in contact with the granule cells of the cerebellum at a concentration of 1 mM.
# In the same batches, currents are on the contrary seen to be induced by NMDA (100 μM) or kainate (100 μM, which concentration allows activation of both the AMPA and kainate receptors), as envisaged given the activation of the NMDA and non-NMDA receptors. The antagonist effects of ACPT-I, ACPT-II and ACPT-III (1 mM) were also examined in responses induced by NMDA or kainate (100 μM).
Structure (SMILES),"inhibition of the formation of IP induced by Glu in cells expressing mGluR1a, in words (mGluR1a; listed as ACPT-III (−))","inhibition of the formation of IP induced by Glu in cells expressing mGluR1a, in words (mGluR1a; listed as ACTP-IIIa)",EC50 (mGluR1a; HEK 293 cells) [µM],IC50 (mGluR1a) [µM],"inhibition of the responses induced by Glu in cells expressing mGluR2, in words (mGluR2; listed as ACPT-III (−))","inhibition of the responses induced by Glu in cells expressing mGluR2, in words (mGluR2; listed as ACTP-IIIa)",EC50 (mGluR2; HEK 293 cells) [µM],IC50 (mGluR2) [µM],"antagonist effect vis-à-vis Glu on mGluR4a, in words (mGluR4a)","slope of Shild curve, mGluR4a (mGluR4a)","inhibition of the formation of IP induced by Glu in cells expressing mGluR1a, in words (mGluR1a; listed as ACPT-III (+))","inhibition of the formation of IP induced by Glu in cells expressing mGluR1a, in words (mGluR1a; listed as ACTP-IIIb)","inhibition of the responses induced by Glu in cells expressing mGluR2, in words (mGluR2; listed as ACPT-III (+))","inhibition of the responses induced by Glu in cells expressing mGluR2, in words (mGluR2; listed as ACTP-IIIb)","agonist effect on mGluR4, in words (mGluR4a)","inhibition of the formation of IP induced by Glu in cells expressing mGluR1a, in words (mGluR1a)","Kb (mGluR1a; read-out: mGluR1a KB (antagonist effect), HEK 293 cells, IP accumulation induced by Glu, Shild representation) [µM]","inhibition of the responses induced by Glu in cells expressing mGluR2, in words (mGluR2)","Kb (mGluR2; read-out: mGluR2 KB (antagonist effect), HEK 293 cells, IP accumulation induced by Glu, Shild representation) [µM]",inhibition of responses induced by NMDA or kainate [1] [%]
NC1(C(=O)O)C[C@@H](C(=O)O)[C@H](C(=O)O)C1,"inhibit the Glu responses, with a low strength",antagonists of mGluR1 and mGluR2,> 3000,1000,"inhibit the Glu responses, with a low strength",antagonists of mGluR1 and mGluR2,> 3000,300,antagonist of mGluR4,0.877,–,–,–,–,–,–,–,–,–,–
NC1(C(=O)O)C[C@H](C(=O)O)[C@@H](C(=O)O)C1,–,–,> 3000,1000,–,–,> 3000,150,–,–,"inhibit the Glu responses, with a low strength",antagonists of mGluR1 and mGluR2,"inhibit the Glu responses, with a low strength",antagonists of mGluR1 and mGluR2,agonist of mGluR4,–,–,–,–,–
N[C@@]1(C(=O)O)C[C@H](C(=O)O)[C@H](C(=O)O)C1,–,–,> 3000,–,–,–,> 3000,–,–,–,–,–,–,–,agonist of mGluR4,inhibit the formation of the IP's induced by the Glu,> 1000,not obtained,> 3000,10

# Read-outs that look alike come from different tables or passages of the source.
